The values below come from US20120258108A1.

By UniProt entry, the sequences of proteins in these tests, tags left out. Residues count along the entry.
UniProt P01375, 77-233 limits assumed: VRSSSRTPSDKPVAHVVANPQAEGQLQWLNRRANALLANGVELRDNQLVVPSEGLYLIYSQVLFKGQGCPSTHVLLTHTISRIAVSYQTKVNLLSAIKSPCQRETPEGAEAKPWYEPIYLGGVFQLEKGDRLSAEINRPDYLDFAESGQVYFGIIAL

In general, Kd refers to the equilibrium constant for the complex coming apart. For orientation: koff means the rate constant with which the complex falls apart. What is called kon is the rate constant with which the complex forms.

Assay [1] deals with Recombinant Human TNFα/TNFSF1A (human) (UniProt P01375). The assay is described as follows: SPR (BIACORE). (Surface plasmon resonance follows binding to a sensor surface in real time, without labels.)
For assay [2] the target is unchanged. Briefly: cell-based or functional assay.

For “AB291 (antibody; other documents disagree on this pair)”, in assay [1], the Kd worked out at 0.098 nM, the koff was determined as 0.00011 s⁻¹ and the kon came to 1.1e+06 M⁻¹ s⁻¹.
In the case of AB291 (antibody), the TNFα Neutralization Assay EC50 nM (L929 cells) in assay [2] worked out at 0.058 nM.
